{"source": "patent US9643960B2", "about": "“Procaspase activating compounds” (The Board of Trustees of the University of Illinois, priority 2009, dated 2017)", "molecular_target": "T1, caspase-3 (Homo sapiens, UniProt P42574)", "T1 construct": "Active caspase-3 is a homodimer of heterodimers and is produced by proteolysis of procaspase-3; 6xHis (C); made in house; host or cells: Escherichia coli BL21(DE3), plasmid pHC332", "T1 sequence (P42574 29-175 limits assumed)": "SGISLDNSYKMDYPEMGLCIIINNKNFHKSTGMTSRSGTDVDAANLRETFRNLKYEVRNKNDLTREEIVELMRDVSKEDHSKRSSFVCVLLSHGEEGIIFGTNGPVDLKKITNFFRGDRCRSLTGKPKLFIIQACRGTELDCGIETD", "T1 sequence (P42574 176-277 limits assumed)": "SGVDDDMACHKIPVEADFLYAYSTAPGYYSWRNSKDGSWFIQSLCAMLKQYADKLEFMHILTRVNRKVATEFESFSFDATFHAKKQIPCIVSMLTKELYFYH", "assay": "Caspase-3 activity assay (relief of zinc mediated inhibition)", "assay_type": "biochemical", "conditions": "read-out: Caspase-3 (% Activation at 10 μM)", "experimental": "Caspase-3 Activity Assays—Zinc-free stocks (2×) of caspase-3 (1 μM) were prepared in Caspase Activity Buffer. Compound stock solutions were made (2×) at various concentrations from 200 μM to 200 nM in Caspase Activity Buffer. […] The plates were incubated at room temperature for 30 minutes. […] The data for each compound concentration (4 wells) was averaged and the percent activity was plotted as a function of compound concentration. The data was analyzed using Table Curve 2D and fitted to a logistical dose-response curve. […] The percent activity at 10 μM was determined for each compound and reported as an average of the three replicate experiments with the corresponding SEM.", "data": [{"smiles": "C=CCc1cccc(/C=N/NC(=O)CN2CCN(Cc3ccccc3)CC2)c1O", "note": "[PAC-1]", "values": [{"measurement": "activation at 10 µM", "result": "45.8 ± 4.8", "unit": "%"}]}]}
